Measured affinities in a library of Ab-95 light chain variants

Source: Engelhart et al. 2022 (doi:10.1038/s41597-022-01779-4), MIT Lincoln Laboratory and A-Alpha Bio; data file from the FLAb repository.

Binding partner: SARS-CoV-2 spike HR2 peptide, sequence PDVDLGDISGINAS.

The variants keep the heavy chain, the linker and the frameworks of Ab-95 (scFv order VH, the linker GGGGSGGGGSGGGGS, VL).
VH: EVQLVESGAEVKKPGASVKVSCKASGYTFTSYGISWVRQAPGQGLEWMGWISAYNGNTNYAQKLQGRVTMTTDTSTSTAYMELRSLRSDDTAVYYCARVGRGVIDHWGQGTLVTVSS
VL: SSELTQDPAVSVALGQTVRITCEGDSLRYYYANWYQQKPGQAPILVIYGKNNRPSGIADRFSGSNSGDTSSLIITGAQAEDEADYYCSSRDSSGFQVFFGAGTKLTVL

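The parent was found by panning a naive human phage display library on the peptide. Variants in AAYL52 differ from the parent at up to three CDR positions; double and triple changes were sampled at random. Affinity was read by AlphaSeq, a pooled yeast mating assay with surface-displayed partners. The frequency of each diploid, read from paired DNA barcodes, reflects how well the two displayed proteins bind. Read counts were normalised to the haploid input and turned into Kd by a linear fit to BCL2-family pairs of known affinity, for each replicate. The assay was run in three technical replicates.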

Positions count from residue 1 of the parent VL; S26Y puts Y in place of S. The read-out is the apparent dissociation constant on a log10 scale (nM): the lower, the stronger. A mean of the replicates is given; it leaves out those without a signal. A pair that was not seen in that replicate is written "n.d."; this usually means weak binding, but a binder can also be missed.

changes | log10 Kd (nM) by replicate | log10 Kd (nM), mean | control signals
S26Y+Y31N+P54E | 3.29 2.52 2.23 | 2.68 | 4/9 (3.38)
G49V+D91M+S92D | 4.62 5.25 n.d. | 4.93 | 1/9 (3.57)
G24D+Y31G+S89K | 3.47 2.64 3.25 | 3.12 | 2/9 (4.13)
N51V+S92H+F95M | n.d. n.d. 3.84 | 3.84 | 4/9 (4.22)
N51I+R53W+V97K | 4.21 4.13 n.d. | 4.17 | 3/9 (3.93)
R28A+D91Q+S92M | 2.34 2.47 1.81 | 2.21 | 4/9 (3.94)
E23N+Y30R+D91L | n.d. n.d. n.d. | n.d. | 0/9
Y31D+G49I+F98L | n.d. n.d. n.d. | n.d. | 2/9 (3.79)
Y31M+S89E+S93K | 3.70 n.d. 4.16 | 3.93 | 1/9 (5.18)
G24A+S92C+Q96C | n.d. n.d. n.d. | n.d. | 2/9 (4.58)
N33K+N51T | n.d. 2.50 n.d. | 2.50 | 3/9 (4.09)
G24A+R90T+F95R | n.d. n.d. n.d. | n.d. | 2/9 (4.19)
G49T+S88A+F98A | 3.13 n.d. n.d. | 3.13 | 1/9 (4.08)
E23N+N51M+S89P | 4.77 2.89 n.d. | 3.83 | 0/9
P54V+S89M+F95G | 2.74 2.12 1.38 | 2.08 | 1/9 (3.05)
K50P+S93E+Q96L | n.d. n.d. 4.46 | 4.46 | 1/9 (3.73)
E23Q+F95P+V97S | 2.83 2.52 3.17 | 2.84 | 0/9
D25A+S89L+F95T | 2.97 3.21 2.66 | 2.95 | 5/9 (3.62)
L27V+R28H+R53I | n.d. 5.64 n.d. | 5.64 | 1/9 (4.27)
S26I+K50I | 3.34 3.43 3.49 | 3.42 | 5/9 (3.56)
Y30K+K50P+F98W | 0.88 1.03 0.43 | 0.78 | 7/9 (4.00)
R28F+Y29C+N51W | 3.07 n.d. n.d. | 3.07 | 2/9 (3.56)
G24N+R53K+S93A | 3.97 n.d. n.d. | 3.97 | 1/9 (3.28)
A32V+S93V+Q96H | 3.04 2.37 3.35 | 2.92 | 2/9 (3.90)
Y31V+R90N | 2.92 3.28 2.77 | 2.99 | 3/9 (4.20)
Y29W+Y31N+G94D | 1.68 1.78 1.84 | 1.77 | 3/9 (3.22)
G24V+Y31I+R90T | 3.96 3.12 3.74 | 3.61 | 2/9 (4.15)
N52W+S92V+F95N | 3.31 2.84 3.08 | 3.07 | 4/9 (3.48)
G49C+Q96C+F98V | n.d. 4.24 n.d. | 4.24 | 3/9 (4.08)
D25M+S89V+Q96Y | n.d. n.d. n.d. | n.d. | 0/9

Extract of 2 entries:

{"changes": "E23N+N51M+S89P", "log10 Kd (nM) by replicate": "4.77 2.89 n.d.", "log10 Kd (nM), mean": "3.83", "control signals": "0/9"}
{"changes": "G49C+Q96C+F98V", "log10 Kd (nM) by replicate": "n.d. 4.24 n.d.", "log10 Kd (nM), mean": "4.24", "control signals": "3/9 (4.08)"}

In this assay the parent's reference entry averaged 2.31; its copy inside this library read 2.25. Background: pairings of library AAYL52 with three empty control strains gave a value in 28% of cases (median 3.91, 5th percentile 2.90). Values in that range, when seen in few replicates, are hard to tell from nonspecific mating. Also given: how often the same scFv was detected with the empty control strains, with their mean in brackets.